Experimental data as given in PubChem BioAssay AID720709 (National Center for Advancing Translational Sciences (NCATS), 2013).
The list shows a part of the results, in another mix than the full data. Inconclusive results are not listed. Active and inactive are the calls of the source. Calls come from the whole dose curve; as a rule, active = well fitted inhibition curve with a large enough effect; inconclusive = small, poorly fitted or top-dose-only effect; inactive = no such curve, though single readings can be large or run the other way.

By UniProt entry, the sequences of proteins in these tests, tags left out.
UniProt O95398, whole entry: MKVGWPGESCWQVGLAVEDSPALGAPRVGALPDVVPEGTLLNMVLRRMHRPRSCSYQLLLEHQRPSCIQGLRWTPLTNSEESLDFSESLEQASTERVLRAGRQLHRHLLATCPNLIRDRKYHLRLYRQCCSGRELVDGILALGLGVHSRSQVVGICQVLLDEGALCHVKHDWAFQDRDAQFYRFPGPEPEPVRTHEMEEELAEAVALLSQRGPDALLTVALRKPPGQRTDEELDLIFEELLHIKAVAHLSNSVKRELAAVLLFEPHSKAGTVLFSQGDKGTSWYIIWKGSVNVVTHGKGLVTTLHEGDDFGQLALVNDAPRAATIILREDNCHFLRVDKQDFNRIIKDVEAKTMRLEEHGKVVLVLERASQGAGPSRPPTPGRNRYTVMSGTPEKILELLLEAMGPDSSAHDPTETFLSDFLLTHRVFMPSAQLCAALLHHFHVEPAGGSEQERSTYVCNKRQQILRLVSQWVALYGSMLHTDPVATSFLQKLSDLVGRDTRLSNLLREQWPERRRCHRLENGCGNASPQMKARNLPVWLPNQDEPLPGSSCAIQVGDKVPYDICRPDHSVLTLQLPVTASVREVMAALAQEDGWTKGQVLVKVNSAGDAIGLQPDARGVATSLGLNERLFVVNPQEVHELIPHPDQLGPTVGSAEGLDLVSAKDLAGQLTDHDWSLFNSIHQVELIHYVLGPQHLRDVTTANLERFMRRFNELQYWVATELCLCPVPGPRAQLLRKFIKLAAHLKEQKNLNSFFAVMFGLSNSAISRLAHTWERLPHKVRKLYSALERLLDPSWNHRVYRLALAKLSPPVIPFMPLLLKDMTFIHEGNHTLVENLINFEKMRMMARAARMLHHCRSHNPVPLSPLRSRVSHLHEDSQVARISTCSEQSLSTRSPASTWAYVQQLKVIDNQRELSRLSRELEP

Each compound was assayed against Rap guanine nucleotide exchange factor 3 (Homo sapiens) (UniProt O95398) (assay: qHTS for Antagonist of cAMP-regulated guanine nucleotide exchange factor 3 (EPAC1): primary screen). Conditions: EPAC1 GEF assay, Rap1b-BODIPY-GDP exchange fluorescence; at 115 µM (top of the series).
Excerpt: In multi-cellular eukaryotic organisms, the effects of cAMP are transduced by two ubiquitously-expressed intracellular cAMP receptors, the classic protein kinase A/cAMP-dependent protein kinase (PKA/cAPK) and the more recently discovered exchange protein directly activated by cAMP/cAMP-regulated guanine nucleotide exchange factor (EPAC/cAMP-GEF). Both PKA and EPAC are ubiquitously expressed in all tissues, and an increase in intracellular cAMP levels will lead to the activation of both PKA and EPAC. […] This qHTS will be used to screen the Molecular Libraries Small Molecule Repository (MLSMR) as a concentration-titration series using the NCGC unique quantitative screening (qHTS) platform to find inhibitors for EPAC1. […] Inhibitors are identified by monitoring the change in fluorescence signal as the exchanged free BODIPY-GDP has a reduced fluorescence compared to Rap1-bound BODIPY-GDP. […]
Briefly, three uL of reagents (100 nM EPAC1, 250 nM RAP1B-BODIPY-GDP, 50 uM GDP) were dispensed into a 1536-well Greiner black solid-bottom medium binding assay plate. […] The assay plates were read at 5 minute intervals for 30 minutes in the ViewLux plate reader using 480nm excitation and 540nm emission filters. […]
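Note: plate controls were vehicle for no effect and positive control for full effect; nearly all actives have a fitted effect of over 50% in size.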

Row | SMILES | activity change, negative = inhibition
1 | CCC(=O)N(c1ccccc1)C1(COC)CCN(CCc2cccs2)CC1 | inactive: -3.81%
2 | CCC(=O)N(c1ccccc1)C1(COC)CCN(CCn2nnn(CC)c2=O)CC1 | inactive: -4.02%
